Results taken from ChEMBL document CHEMBL1275547, “KHM-1, a novel plasmid-mediated metallo-beta-lactamase from a Citrobacter freundii clinical isolate” (2008).

System: Escherichia coli
Test: Ratio of Kcat to Km for Escherichia coli JM109 harboring recombinant pKHM-1 Beta-lactamase KHM-1 assessed as compound hydrolysis by UV-visible spectrophotometry

## CO/N=C(\C(=O)N[C@@H]1C(=O)N2C(C(=O)O)=C(COC(C)=O)CS[C@H]12)c1csc(N)n1 [CEFOTAXIME]
  kcat/Km: 1.7 ×10⁸ /M/s
